Laboratory results published in patent US20110020272A1, “COMBINATION THERAPY FOR TREATING HEPATITIS VIRAL INFECTION” (priority 2009, published 2011).

What was measured:
[1] = system: sub-genomic HCV Con 1 isolate in Luc-ubi-neo/ET Replicon cells; test: HCV RNA replication in Luc-ubi-neo/ET Replicon cells, combined/sequential PI and IFN; format: cell-based; conditions: initial experiments; IFN 0.5 U/ml, PI 500-1000 nM
Description: Replicon cells are in general Luc-ubi-neo/ET Replicon cells, which are derived from Huh7 cells and which harbor a sub-genomic HCV Con 1 isolate with a luciferase reporter gene. These so-called Replicon cells allow for in vitro screening of antiviral substances by autonomous HCV RNA replication.
(§1) Luc-ubi-neo/ET-cells were seeded and incubated with PI and IFN (Roferon A, Roche) for 24 hours on the following day. […] After a 24 hour combined incubation, the medium was changed and cells were incubated for another 48 hours with PI alone. After these 3 days of incubation, HCV RNA replication was determined with respect to the non-treated control.

[2] = system: Luc-ubi-neo/ET Replicon cells; test: Cytotoxicity in Replicon cells; format: cell-based, human; conditions: 750 nM PI and 0.5 U/ml IFN
Description: as §1

[3] = system: HCV genotype 1; conditions: PEG-interferon alpha-2a monotherapy arm, after 14 days; previous relapse; cited from earlier work
[4] = 90 μg/week for 3.5 years; prior non response, advanced fibrosis/cirrhosis; cited from earlier work

Row | Substance | inhibition of HCV RNA replication [1] | cytotoxicity [2] | decline of HCV RNA [3] | rate of primary outcome (progression of liver disease) vs no treatment [4]
1 | IFN: interferon (Roferon A, Roche) used in the replicon experiments | only a low inhibition | no cytotoxicity is observed | – | –
2 | PEG-interferon alpha-2a: pegylated interferon alpha-2a (40 kD) | – | – | 0.58 log 10 | no difference between the groups in the rate of any primary outcome
